{"source": "patent US7629342B2", "about": "“Azabicyclic heterocycles as cannabinoid receptor modulators” (Bristol-Myers Squibb Company, priority 2005, dated 2009)", "origin": "cited, not measured here", "details": "chronic administration for two weeks"}
{"smiles": "Cc1c(C(=O)NN2CCCCC2)nn(-c2ccc(Cl)cc2Cl)c1-c1ccc(I)cc1", "note": "[AM-251]", "values": [{"measurement": "adipose tissue mass", "value": "decreased adipose tissue mass"}]}
